Paper PMC11593560, “Disruption of the Physical Interaction Between Carbonic Anhydrase IX and the Monocarboxylate Transporter 4 Impacts Lactate Transport in Breast Cancer Cells” (International Journal of Molecular Sciences, 2024)

Key:
[1] = molecular target: monocarboxylate transporter 4 (human (endogenous in MDA-MB-231)) (UniProt O15427); assay: proximity ligation; Duolink in situ PLA on hypoxic MDA-MB-231 cells, control medium without BGal2C; signals counted per nucleus
[2] = molecular target: monocarboxylate transporter 1 (human (endogenous in MDA-MB-231 and MCF-7)) (UniProt P53985); assay: as above
[3] = molecular target: monocarboxylate transporter 1 (human (endogenous in MDA-MB-231 and MCF-7)) (UniProt P53985); assay: proximity ligation; Duolink in situ PLA on hypoxic MCF-7 cells, control medium without BGal2C; signals counted per nucleus

PLA signals/nucleus (signals/nucleus) [1]: 4.6
PLA signals/nucleus (signals/nucleus) [2]: 8.7
PLA signals/nucleus (signals/nucleus) [3]: 10.9
Substance: carbonic anhydrase IX (from UniProt Q16790 38-459) (enzyme)
